Source: patent US10864212B2, “Compositions and methods for treating retinal degradation” (University of Kentucky Research Foundation, priority 2013, dated 2020)

The chains behind the UniProt entries cited, without tags or fusion partners. Where a name states a change or a piece, a line headed by the entry shows the natural chain unless it says otherwise.
UniProt Q99572: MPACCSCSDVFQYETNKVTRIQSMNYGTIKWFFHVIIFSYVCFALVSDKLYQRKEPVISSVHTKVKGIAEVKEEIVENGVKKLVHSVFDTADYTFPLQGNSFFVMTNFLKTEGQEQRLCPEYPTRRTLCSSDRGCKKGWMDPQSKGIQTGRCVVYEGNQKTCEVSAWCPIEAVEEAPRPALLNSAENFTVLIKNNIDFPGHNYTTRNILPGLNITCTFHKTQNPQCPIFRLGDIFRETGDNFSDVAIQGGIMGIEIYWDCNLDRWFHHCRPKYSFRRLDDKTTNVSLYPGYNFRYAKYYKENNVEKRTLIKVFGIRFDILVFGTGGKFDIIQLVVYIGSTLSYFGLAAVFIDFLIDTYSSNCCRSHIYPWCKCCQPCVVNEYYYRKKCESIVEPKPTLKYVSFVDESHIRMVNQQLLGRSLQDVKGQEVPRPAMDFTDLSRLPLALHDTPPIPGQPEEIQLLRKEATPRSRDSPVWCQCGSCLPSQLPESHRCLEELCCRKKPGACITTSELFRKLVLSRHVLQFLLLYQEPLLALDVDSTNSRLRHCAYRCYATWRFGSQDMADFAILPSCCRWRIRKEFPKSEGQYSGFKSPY

Target: P2X7 receptor (Homo sapiens, UniProt Q99572)
Test: ATP-induced cell permeability to Yo-Pro1 in PMA-differentiated THP-1 cells (P2X7 receptor assay)
Assay type: cell-based
Parameters: THP-1 cells differentiated into macrophages by PMA allowed entry of the large fluorescent dye Yo-Pro 1; endogenous in cells; host or cells: THP-1 cells differentiated into macrophages by PMA
Conditions: THP-1 cells differentiated into macrophages by PMA; FIG. 17
Source text: FIG. 17 provides the results of the fluorescence measurement in relative fluorescence units (RFU, y-axis).
To prepare FIG. 17, THP-1 cells differentiated into macrophages by PMA allowed entry of the large fluorescent dye Yo-Pro 1, in an assay for P2X7 receptor activity. […] Indeed, FIG. 17 provides the results of the fluorescence measurement in relative fluorescence units (RFU, y-axis).

Cc1cn([C@H]2C=C[C@@H](CO)O2)c(=O)[nH]c1=O [d4T, 2′3′ dideoxythymidine]
Yo-Pro entry induced by ATP (RFU): dose-dependently reduced Yo-Pro entry induced by ATP
